Results on 41 compounds are retold here after PubChem BioAssay AID463111 (Johns Hopkins Ion Channel Center, 2010).

The list shows a part of the results, in another mix than the full data. Active and inactive are the calls of the source.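 The calls were made as follows: active = B-score of the integrated calcium signal more than 4 SD below the library mean, with starting fluorescence not abnormally high; inactive = the rest.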

A short description of this assay: enhancers of RGS4 function in calcium signaling – cell-based, HEK293 M3R inducible RGS4, calcium flux, primary screen (AID 463111).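 As to B-score: negative B-score means reduced calcium response which marks RGS4 activation or potentiation.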 The note with it: HEK293 M3R/inducible RGS4, carbachol calcium flux Fluo4, at 10 µM; hits give low values. The gist of the method:
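Assay system: HEK293 FlpIn-TREx cells, stable M3R, doxycycline-inducible RGS4 / Probe or stimulus: carbachol, ECmax concentration / Times: overnight RGS4 induction, 30 min dye load 37 °C, 20 min compound RT / Signal: kinetic calcium fluorescence imaging with Fluo4-AM dye, 2 µM / Measure: Agonist-evoked peak-minus-minimum fluorescence over baseline, integrated ratio, B score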
In the case of `CCC(C)N(CC(C)C)C(=S)SC(NC(C)=O)C(Cl)(Cl)Cl` (stereo unspecified), the outcome was inactive.
The same measure, in the same setting: then `CP(=O)(Nc1ccccn1)Oc1ccc(Cl)cc1` (stereo unspecified), with “inactive”.
Take `O=C(OC1CN2CCC1CC2)c1cccc([N+](=O)[O-])c1` (stereo unspecified): the outcome was inactive.
On the same count and under the same terms, then `CCOP(C)(=S)SCC(=O)NC(C)C(=O)O` (stereo unspecified), with “inactive”; and `CCOC(=O)c1ccc(NP(C)(=O)Oc2ccc(OC)cc2)cc1` (stereo unspecified), with “inactive”; and `CCOC(=O)c1ccc(NC(=O)C(C)(CCl)SC)cc1` (stereo unspecified), with “inactive”.
On the same count and under the same terms, then `O=[N+]([O-])c1cc([N+](=O)[O-])c(O)c([N+](=O)[O-])c1.c1ccc(Oc2ccncc2)cc1`, with “inactive”.
Still for that read-out and setting: then `Cc1cc(C)cc(OP(C)(=O)Nc2ccc(SC(F)(F)F)cc2)c1` (stereo unspecified), with “inactive”; and `O=C(Nc1ccncc1[N+](=O)[O-])c1ccc([N+](=O)[O-])cc1[N+](=O)[O-]`, with “inactive”.
For the compound `O=C(COc1ccccc1)OC1CN2CCC1CC2` (stereo unspecified), the outcome was inactive.
On the same count and under the same terms, then `CP(=O)(NC(=O)Nc1ccccc1)Oc1ccccc1` (stereo unspecified), with “inactive”.
The same measure, in the same setting: then `CCc1ccc(OP(C)(=O)N2CCN(c3ccc([N+](=O)[O-])cc3)CC2)cc1` (stereo unspecified), with “inactive”; and `CP(=O)(Oc1ccccc1)OC(c1ccccc1)C(F)(F)F` (stereo unspecified), with “inactive”; and `COP1(=S)c2c(C)nn(CCC#N)c2N=C(c2ccc(F)cc2)N1C` (stereo unspecified), with “inactive”.
Same read-out and setting: the entry for `Cc1cccc(C)c1OP(C)(=O)Nc1ccc(SC(F)(F)F)cc1` (stereo unspecified) is “inactive”; for `CP(=O)(Nc1ccc(SC(F)(F)F)cc1)Oc1ccc(Cl)cc1` (stereo unspecified) it is “inactive”.
As to `COc1ccc(N/C(=N/P(=O)(N2CCOCC2)N2CCOCC2)N2CCOCC2)cc1`, the outcome was inactive.
On the same count and under the same terms, the entry for `COc1cc(I)ccc1[As](=O)(O)O` is “inactive”.
Consider `COc1ccc2nc(NP(=O)(c3ccccc3)c3ccccc3)sc2c1`, for which the outcome was inactive.
On the same count and under the same terms, then `Cc1c2c(nc3ccccc13)SC(C(Cl)Cl)C2` (stereo unspecified), with “inactive”.
With `CCN(CC)CCCOC(=O)C(O)(c1ccccc1)c1ccccc1`, the B-score was active: -8.74.
Regarding `Cc1cc(=O)[nH]c(N[N+](=O)[O-])n1`, the outcome was inactive.
The same measure, in the same setting: then `COc1ccc(OP(C)(=O)Nc2cccc(F)c2)cc1` (stereo unspecified), with “inactive”; and `O=[N+]([O-])c1cc([N+](=O)[O-])c(-c2ccn[nH]2)s1`, with “inactive”.
In the case of `COc1ccccc1OP(C)(=O)Nc1cc(Cl)ccc1C` (stereo unspecified), the outcome was inactive.
Still for that read-out and setting: the entry for `CC(C)NC(=O)NP(=O)(Oc1ccccc1)Oc1ccccc1` is “inactive”; for `CCN(CC)C(=S)SC(NC=O)C(Cl)(Cl)Cl` (stereo unspecified) it is “inactive”; for `Cc1cc(C)cc(OP(C)(N)=O)c1` (stereo unspecified) it is “inactive”.
Turning to `ClCCSc1nnc(-c2cccnc2)o1`, the result was inactive.
Still for that read-out and setting: then `CCOC(=O)c1ccc(NP(C)(=O)Oc2ccccc2)cc1` (stereo unspecified), with “inactive”; and `CC(C)c1ccc(OP(=O)(Nc2ccccn2)Oc2ccccc2F)cc1` (stereo unspecified), with “inactive”; and `Cc1ccc(NP(C)(=O)Oc2ccccc2)c(C)c1` (stereo unspecified), with “inactive”.
Turning to `COc1ccccc1OP(C)(=O)Nc1ccc(C)cc1` (stereo unspecified), the result was inactive.
Still for that read-out and setting: the entry for `Cc1cccc(C)c1OP(C)(N)=O` (stereo unspecified) is “inactive”.
Regarding `Cc1ccc(OP(=O)(Nc2ccc([N+](=O)[O-])cn2)Oc2ccc(C)cc2)cc1`, the result was inactive.
For `CC(C)(C)c1ccc(OP(C)(=O)Nc2ccc(SC(F)(F)F)cc2)cc1` (stereo unspecified), the B-score was active: -9.33.
For `O=[N+]([O-])c1ccc2c(c1)C=Nc1ccccc1O2`, the result was inactive.
For the compound `Cc1ccc2nc3c(c(C)c2c1)CC(C(Cl)Cl)S3` (stereo unspecified), the outcome was inactive.
As for `O=[N+]([O-])c1cc([N+](=O)[O-])c(Nc2cccnc2)c([N+](=O)[O-])c1`, the result was inactive.
On the same count and under the same terms, the entry for `O=[As](O)(c1ccc(O)cc1)c1ccccc1O` is “inactive”; for `C[As](=O)(O)c1cccc(C(=O)O)c1` it is “inactive”.
